Sampled rows, rich in hits. Any-hit rate of the full collection: about 1.1%.
PINK1 expr mod – changes PINK1 expression; AID 624263; PINK1 immunofluorescence, high-content cytometry, 24 h; Potency, µM (titrated, usually from 76.6 µM), for the others: at the highest dose activation (PINK1 increase), most hits filed as activators; 0.2% of 410,000 active; active = well fitted activation curve with a large enough effect; inconclusive = small, poorly fitted or top-dose-only effect; cell line not stated here; also: potency is read from the fitted curve at half-maximal effect; % of control where 0% means no effect; nearly all actives have a fitted effect of over 65% in size
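Compound titrations (5 concentrations, 24 h) on a stable cell line; DMSO and CCCP controls. Endpoint: fixed-cell PINK1 immunofluorescence with mitochondrial, cell and nuclear markers, scanned by microplate cytometer.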
TrxR1 substrate – rat thioredoxin reductase 1 substrate activity | purified TrxR1 substrate turnover, NADPH consumption readout | AID 588456 | O89049 | 0.01% of 390,000 active | Potency, µM (series often up to 114 µM), for inactives: at the highest dose activity change, negative = substrate turnover; also: potency is read from the fitted curve at half-maximal effect; % is scaled to controls: 0 for no effect and ±100 for the full control effect; nearly all actives have a fitted effect of over 50% in size
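Rat TrxR1, dispensed at 90 nM, was prereduced with 400 uM NADPH (final) for 5 min at ~22 deg C, then incubated with compound 15 min before 400 uM selenite. A first-read NADPH fluorescence drop versus no-compound background flagged substrates.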
miR-21 FLuc – miR-21 reporter, rising signal | HeLa miR-21 FLuc reporter, luciferase, 48 h | Potency, µM (top dose mostly 38.3 µM), inactives show at the top dose reporter change, positive = more light | 340,000 tested, under 10 active | AID 2288; active = well fitted rising curve with a large enough effect; inconclusive = small, poorly fitted or top-dose-only effect; inactive = no such curve, though single readings can be large or run the other way;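 further: % of control where 0% means no effect; miR-21 action dims this reporter so a rising signal means less miR-21 action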
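HeLa cells endogenously expressing miR-21, stably carrying CMV-driven firefly luciferase with a downstream miR-21 binding site, 2000 cells/well. Titrations up to approximately 40 uM, 48 hours; luciferase luminescence read.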
rTrxR1 inhibitor – rat TrxR1 inhibition; O89049; recombinant rTrxR1, NADPH fluorescence consumption, selenite substrate; Potency, µM (series often up to 114 µM), for the others: at the highest dose activity change, negative = inhibition, most hits filed as inhibitors; 1% of 390,000 active; also: potency is read from the fitted curve at half-maximal effect; % is scaled to controls: 0 for no effect and ±100 for the full control effect; nearly all actives have a fitted effect of over 65% in size
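Rat TrxR1 (90 nM in the dispensed reagent) was pre-reduced with 400 uM NADPH for 5 min at room temperature, then incubated with compound for 15 min. After 400 uM selenite was added, NADPH fluorescence (Ex 340/Em 450 nm) was followed for 8 min.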
GALK inhibitor – galactokinase (human) inhibition; P51570; Purified GALK, Kinase-Glo residual ATP luminescence; Potency, µM (doses to about 57.5 µM), inactives show top-dose activity change, negative = inhibition, actives largely listed as inhibitors; 0.007% of 270,000 active; AID 1868; also: potency is read from the fitted curve at half-maximal effect; % is scaled to controls: 0 for no effect and ±100 for the full control effect
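GALK at 5 nM final was combined with compound, 35 uM ATP and 100 uM galactose in HEPES pH8.0 with MgCl2 and DTT. The reaction ran one hour at room temperature before luminescent ATP detection.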
Starred values were filed as active, the others as inactive; ? = inconclusive; · = no result; [ ] = another dose, or the depositor's remark. Unless noted, calls follow the shape of the dose curve; as a rule, active = well fitted curve in the direction sought with a large enough effect; inconclusive = small, poorly fitted or top-dose-only effect, or another doubt; inactive = no such curve, though single readings can be large; an effect the other way counts as inactive or inconclusive.

Labels used below: A = PINK1 expr mod; B = TrxR1 substrate; C = miR-21 FLuc; D = rTrxR1 inhibitor; E = GALK inhibitor
O=c1oc(/C=C/c2ccc([N+](=O)[O-])s2)nc2ccccc12
  A = 40µM*	B = -7%	C = 20%	D = 2%	E = 4%

Cc1ccc(C)c(NC(=O)c2ccccc2NS(=O)(=O)c2cc([N+](=O)[O-])ccc2C)c1
  A = 8.9µM*	B = 3%	C = ?	D = 5%	E = 0%

Cc1ccc([N+](=O)[O-])cc1S(=O)(=O)Nc1cccc(S(=O)(=O)Nc2ccccc2C(=O)O)c1
  A = 0%	B = -3%	C = ·	D = -3%	E = ·

CS/C(=C\[N+](=O)[O-])Nc1ccc(F)cc1
  A = 1%	B = -24%[57.1 µM]	C = 6%	D = ?	E = 2%

CS/C(=C\[N+](=O)[O-])Nc1ccccc1
  A = -2%	B = 12%[57.1 µM]	C = 13%	D = 1.3µM*	E = -3%

COc1ccc(N/C(=C/[N+](=O)[O-])SC)cc1
  A = 6%	B = 3%[57.1 µM]	C = 3%	D = 7.1µM*	E = 11%

CN(C)c1ccc(/C=C/c2ccnc3c(Cl)cccc23)cc1
  A = ·	B = -7%	C = ·	D = -7%	E = ·

CCc1ccc(NC(=O)CN(c2ccc(Cl)cc2)S(=O)(=O)c2ccsc2C(=O)OC)cc1
  A = 0%	B = 4%[57.1 µM]	C = ?	D = 15%[57.1 µM]	E = ·

COc1cc(CN2CCN(C(=O)c3cccc4ccccc34)CC2)cc(OC)c1O
  A = 1%	B = -1%	C = -2%	D = 50µM*	E = -3%

COc1ccc(OC)c(CN2CCN(C(=O)c3cccc4ccccc34)CC2)c1
  A = -2%[38.3 µM]	B = -1%[57.1 µM]	C = 4%	D = -11%[57.1 µM]	E = -2%

CCNc1ncc2nc(-c3ccc(Cl)cc3)c(=O)n(-c3ccccc3)c2n1
  A = 13µM*	B = ·	C = ·	D = ·	E = ·

O=S1(=O)C=C(Sc2nc3cc(Cl)ccc3o2)c2ccccc21
  A = 0%	B = 8%[57.1 µM]	C = 27%	D = 2.8µM*	E = -3%

Cc1cc(NC(=O)CSc2nc3cc(Cl)ccc3o2)no1
  A = -1%	B = 0%	C = -6%	D = 8%	E = 6%

COc1ccc(C(=O)CCS(=O)(=O)c2ccc(F)cc2)cc1OC
  A = ·	B = ·	C = -5%	D = ·	E = 0%

Cc1ccc(S(=O)(=O)CCC(=O)c2ccc(F)cc2)cc1
  A = 0%	B = -3%	C = 2%	D = 1.6µM*	E = -7%

Cc1ccc(C(=O)CCS(=O)(=O)c2ccc(Cl)cc2)cc1
  A = 11%	B = -1%	C = -1%	D = 0.56µM*	E = -9%

Cc1ccc(S(=O)(=O)CC(=O)c2ccccc2)cc1
  A = 0%	B = -6%	C = -11%	D = 35µM*	E = 2%

Cc1ccc(S(=O)(=O)CCC(=O)OCC(=O)NCCc2ccc(F)cc2)cc1
  A = 0%	B = 0%	C = ·	D = 12%	E = ·

Cc1ccc(C(=O)CCS(=O)(=O)c2ccc(F)cc2)cc1
  A = 1%	B = -11%	C = ?	D = 1.1µM*	E = -6%

O=C(CCCn1c(=O)c2ccccc2n(Cc2cccc(Cl)c2)c1=O)NCCc1ccc(Cl)cc1
  A = 5%	B = 4%	C = 0%	D = 7%	E = ·

Cc1cc(C)c2c(=O)cc(C(=O)Nc3sc4c(c3C(=O)NCc3cccnc3)CCCC4)oc2c1
  A = 6%	B = 5%	C = 0%	D = 18%	E = ·

Cc1cc(C(=O)CS(=O)(=O)c2ccc(Cl)cc2)cc(C)c1O
  A = 0%	B = -1%	C = -16%	D = 45µM*	E = 0%

COc1ccccc1N1CSC2=C(C#N)C(c3ccc(SC)cc3)CC(=O)N2C1 (stereo not drawn)
  A = 0%	B = -5%[57.1 µM]	C = -3%	D = 13µM*	E = 1%

COc1cc(OC)c(C2CC(=O)N3CN(c4ccccc4)CSC3=C2C#N)cc1OC (stereo not drawn)
  A = -3%	B = -17%	C = -10%	D = 32µM*	E = 0%

COc1ccc(-n2c(SCC(=O)c3ccccc3)nc3c([nH]c4ccccc43)c2=O)cc1
  A = -5%	B = 2%[57.1 µM]	C = 0%	D = 35%[57.1 µM]	E = ·

CC(=O)N(C1=C(N2CCOCC2)C(=O)c2ccccc2C1=O)c1ccc(C(=O)O)cc1
  A = 1%	B = -4%	C = ?	D = 7.9µM*	E = 1%

CCS(=O)(=O)N1N=C(c2ccc(NS(C)(=O)=O)cc2)CC1c1ccccc1 (stereo not drawn)
  A = ?	B = 126%	C = -15%	D = ?	E = 0%

CS(=O)(=O)Nc1ccc(C2=NN(S(C)(=O)=O)C(c3ccccc3)C2)cc1 (stereo not drawn)
  A = 1%	B = 163%	C = -42%	D = 79µM*	E = 0%

Cc1cc(=O)c2c(o1)C(=O)c1occc1C2=O
  A = 5%	B = -11%	C = ·	D = 32µM*	E = ·

COCC(=O)Nc1cc(C(=O)N2CCC(c3ccccc3)CC2)cc2nc(-c3ccccc3)n(C)c12
  A = 5%	B = ·	C = ·	D = ·	E = ·

Single records (already shown):
`CC(=O)N(C1=C(N2CCOCC2)C(=O)c2ccccc2C1=O)c1ccc(C(=O)O)cc1` as listed: PINK1 expr mod = 1%; TrxR1 substrate = -4%; miR-21 FLuc = ?; rTrxR1 inhibitor = 7.9µM*; GALK inhibitor = 1%
`Cc1ccc(S(=O)(=O)CCC(=O)OCC(=O)NCCc2ccc(F)cc2)cc1` as listed: PINK1 expr mod = 0%; TrxR1 substrate = 0%; miR-21 FLuc = ·; rTrxR1 inhibitor = 12%; GALK inhibitor = ·

Next section
Labels used below: A = PINK1 expr mod; B = TrxR1 substrate; C = miR-21 FLuc; D = rTrxR1 inhibitor; E = GALK inhibitor
O=[n+]1c2c(n([O-])c3cc(Br)ccc31)CCCC2
  A = 1%	B = -14%	C = -4%	D = -20%	E = 0%

O=[n+]1c2c(n([O-])c3cc(F)c(F)cc31)CCCC2
  A = 1%	B = -8%	C = 0%	D = 3.5µM*	E = -1%

CCCCOC(=O)c1ccc(NC(=O)c2cc(-c3cccs3)on2)cc1
  A = -1%	B = -1%	C = -18%	D = 27%	E = ·

COc1ccc(CCNC(=O)c2ccc3c(c2)N(Cc2cc(C)ccc2C)C(=O)c2ccccc2S3=O)cc1OC (stereo not drawn)
  A = -1%	B = -1%	C = 14%	D = 35%	E = ·

COc1cccc(-n2c(CCn3nc(C)c([N+](=O)[O-])c3C)n[nH]c2=S)c1
  A = -1%	B = 3%	C = -6%	D = ?	E = -4%

Cc1cccc(-n2c(CCn3nc(C)c([N+](=O)[O-])c3C)n[nH]c2=S)c1
  A = 11µM*	B = 5%	C = -5%	D = -5%	E = -3%

CNCc1ccccc1Sc1ccc(O)c(O)c1
  A = 2%	B = -10%	C = ?	D = 32µM*	E = 2%

O=C(O)c1cc(Nc2cc(Cl)c3nonc3c2[N+](=O)[O-])ccc1O
  A = 3%	B = -21%	C = 2%	D = 1.8µM*	E = -2%

O=[N+]([O-])c1c(Nc2ccccc2O)ccc2nonc12
  A = 0%	B = 10%[57.1 µM]	C = -13%	D = 21%[57.1 µM]	E = -4%

O=[N+]([O-])c1c(Nc2ccccc2O)cc(Cl)c2nonc12
  A = -2%	B = -1%	C = ?	D = 0.71µM*	E = -3%

CCOC(=O)c1ccccc1NS(=O)(=O)c1c(-c2ccc(C)cc2)csc1C(=O)OC
  A = 3%	B = 2%[57.1 µM]	C = 29%	D = 12%[57.1 µM]	E = ·

CCN(C(=O)CCn1cnc2onc(-c3ccc(F)cc3)c2c1=O)c1ccc(OC)cc1
  A = 0%	B = -3%	C = ?	D = 20%	E = ·

O=C1c2ccccc2-c2c1cccc2C(=O)N1CCN(C(=O)c2ccco2)CC1
  A = -1%	B = 9%	C = -7%	D = 32µM*	E = 0%

COc1ccc(/[N+]([O-])=C/c2ccco2)cc1
  A = 1%	B = -7%	C = ·	D = 56µM*	E = ·

OC(C[n+]1cccc(Br)c1)c1ccccc1 (stereo not drawn)
  A = 0%	B = 2%	C = ·	D = 5%	E = ·

COC(=O)c1ccc(C(=O)N2CCCC(CNC(=O)c3ccc(F)cc3)C2)cc1 (stereo not drawn)
  A = 1%	B = 5%[57.1 µM]	C = -6%	D = 22%[57.1 µM]	E = -3%

COCc1ccc(C(=O)N2CCCC(CNC(=O)c3ccc(F)cc3)C2)o1 (stereo not drawn)
  A = 2%	B = -8%	C = -1%	D = 35µM*	E = 6%

CN(C)c1cccc2c(C=C(C#N)C#N)ccc(N(C)C)c12
  A = 2%	B = -11%	C = -2%	D = 25µM*	E = 2%

Cc1onc(-c2ccccc2Cl)c1C(=O)Nc1nnc(C2CCCCC2)s1
  A = -1%	B = -2%	C = ·	D = 11%	E = ·

CCC(C)N(CC(=O)Nc1cccc(C)c1C)C(=O)CCl (stereo not drawn)
  A = -1%	B = 0%[57.1 µM]	C = ?	D = 28µM*	E = 7%
